Measurements: PubChem BioAssay AID624465 (National Center for Advancing Translational Sciences (NCATS), 2012)
Only a part is listed here, and it is no random draw. Calls of active or inactive are those of the source. No stated cut-off is given here; in the data, active means activation above about 40%; inconclusive means between about 15% and that limit; inactive means weaker than that.

By UniProt entry, the sequences of proteins in these tests, tags left out.
UniProt P14416, whole entry: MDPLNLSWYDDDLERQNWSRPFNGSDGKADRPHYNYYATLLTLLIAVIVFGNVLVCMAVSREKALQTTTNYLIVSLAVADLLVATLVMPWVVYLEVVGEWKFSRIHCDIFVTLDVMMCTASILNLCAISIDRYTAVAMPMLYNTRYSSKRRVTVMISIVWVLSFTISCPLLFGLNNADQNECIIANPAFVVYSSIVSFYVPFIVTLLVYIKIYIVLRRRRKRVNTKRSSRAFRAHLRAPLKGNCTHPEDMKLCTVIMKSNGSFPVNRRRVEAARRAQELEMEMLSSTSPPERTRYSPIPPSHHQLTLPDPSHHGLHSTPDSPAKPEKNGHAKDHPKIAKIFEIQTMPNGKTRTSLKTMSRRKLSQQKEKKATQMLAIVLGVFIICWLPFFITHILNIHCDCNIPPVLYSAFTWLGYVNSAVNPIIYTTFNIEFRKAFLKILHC

Each compound was assayed against D(2) dopamine receptor (Homo sapiens) (UniProt P14416) (assay: Beta-Arrestin HTS for Positive Allosteric Modulators of the Human D2 Dopamine Receptor: Agonists). Details: DiscoveRx PathHunter D2 beta-arrestin, luminescence, 90 min; active compounds read high; 100% = 57 uM dopamine signal.
Excerpt: There is great interest in identifying small molecule ligands for G-protein coupled receptors (GPCRs) as nearly 50% of all FDA-approved drugs target these important receptor proteins. […] Amongst the dopamine receptors (DARs), the D2 is arguably one of the most validated drug targets in neurology and psychiatry. For instance, all receptor-based antiparkinsonian drugs primarily work via stimulating the D2 DAR, whereas all FDA-approved antipsychotic agents are antagonists of this receptor. The D2 DAR is also therapeutically targeted in other disorders such as restless legs syndrome, tardive dyskinesia, Tourette's syndrome, and hyperprolactinemia.
To this end, a miniaturized qHTS screen was developed to be screened against the Molecular Libraries Small Molecule Repository (MLSMR). This assay seeks to identify agonists against the D2 DAR.
NIH Molecular Libraries Probe Production Network [MLPCN]
NIH Chemical Genomics Center [NCGC]
PI Name: David Sibley, National Institutes of Neurological Disorders and Stroke
DiscoveRx D2 cells were thawed from frozen stock and seeded at 2,100 cells/ 3 uL/well media (DiscoveRx Plating Reagent 2) with MultiDrop Combi dispenser (Thermo Scientific, Logan, UT) onto white tissue culture treated 1536-well Aurora plates (Brooks Automation, Chelmsford, MA) and allowed to attach overnight at 37 deg C, 5% CO2. Next, 23 nL/well of compound solutions in DMSO were added with a pintool transfer (Kalypsis, San Diego, CA). As the positive control, 1 uL/well dopamine (EC100, 57 uM final concentration) diluted in buffer (HBSS + 10 mM HEPES + SMB + 0.1% Tween-20) was dispensed to 1 column of each plate. The rest of the plate was dispensed with buffer only, 1 uL/well as well. The cells were stimulated by compounds or dopamine control for 90 minutes at 37 deg C, 5% CO2, after which 1.5 ul/well of DiscoveRx detection reagent was added with BioRAPTR FRD dispenser. The detection reagent was prepared by mixing of Galacton Star Substrate, Emerald II solution and PathHunter buffer (supplied by the assay kit) together at 1:5:19 proportion accordingly just prior to dispensing. The plates were incubated at ambient temperature for 1 hour and then the luminescent signal was read on ViewLux plate reader (PerkinElmer, Waltham, MA).

Row | SMILES | activation
1 | Cc1ccc2nc3c(c(C)c2c1)CC(C(Cl)Cl)S3 (centres undefined) | inactive: 7.3%
2 | O=[N+]([O-])c1ccc2c(c1)C=Nc1ccccc1O2 | inactive: 1.45%
3 | Cc1cccc(C)c1OP(C)(N)=O (centres undefined) | inactive: -3.52%
4 | CC(C)(C)c1ccc(OP(C)(=O)Nc2ccc(SC(F)(F)F)cc2)cc1 (centres undefined) | inactive: -7.33%
5 | Cc1ccc(OP(=O)(Nc2ccc([N+](=O)[O-])cn2)Oc2ccc(C)cc2)cc1 | inactive: -5.06%
6 | Cc1ccc(NP(C)(=O)Oc2ccccc2)c(C)c1 (centres undefined) | inactive: -4.25%
7 | CC(C)c1ccc(OP(=O)(Nc2ccccn2)Oc2ccccc2F)cc1 (centres undefined) | inactive: 0.724%
8 | COC(=O)C1(C)COP(=O)(N2CCCCCC2)OC1 (centres undefined) | inactive: 0.233%
9 | COc1ccccc1OP(C)(=O)Nc1ccc(C)cc1 (centres undefined) | inactive: -0.708%
10 | ClCCSc1nnc(-c2cccnc2)o1 | inactive: -0.881%
11 | CCOC(=O)c1ccc(NP(C)(=O)Oc2ccccc2)cc1 (centres undefined) | inactive: -0.665%
12 | Cc1cc(C)cc(OP(C)(N)=O)c1 (centres undefined) | inactive: -9.26%
13 | O=[N+]([O-])c1cc([N+](=O)[O-])c(-c2ccn[nH]2)s1 | inactive: 4.18%
14 | COc1ccc(OP(C)(=O)Nc2cccc(F)c2)cc1 (centres undefined) | inactive: -2.1%
15 | CCN(CC)C(=S)SC(NC=O)C(Cl)(Cl)Cl (centres undefined) | inactive: -1.47%
16 | O=C(OC1CN2CCC1CC2)c1cccc2[nH]cnc12 (centres undefined) | inactive: 7.19%
17 | CC(C)NC(=O)NP(=O)(Oc1ccccc1)Oc1ccccc1 | inactive: -1.64%
18 | COc1ccccc1OP(C)(=O)Nc1cc(Cl)ccc1C (centres undefined) | inactive: -2.62%
19 | Cc1cc(=O)[nH]c(N[N+](=O)[O-])n1 | inactive: -3.05%
20 | CCN(CC)CCCOC(=O)C(O)(c1ccccc1)c1ccccc1 | inactive: 0.107%
21 | O=C(OC1CN2CCC1CC2)C12CC3CC(CC(C3)C1)C2 (centres undefined) | inactive: -1.73%
22 | Cc1c2c(nc3ccccc13)SC(C(Cl)Cl)C2 (centres undefined) | inactive: 2.03%
23 | COc1cc(I)ccc1[As](=O)(O)O | inactive: -3.95%
24 | COc1ccc2nc(NP(=O)(c3ccccc3)c3ccccc3)sc2c1 | inactive: -0.0487%
25 | O=P1(N(CCCl)CCCl)Nc2ccccc2N1 | inactive: -1.88%
26 | O=P1(N(CCCl)CCCl)OCCCN1CCCl (centres undefined) | inactive: -2.96%
27 | COc1ccc(N/C(=N/P(=O)(N2CCOCC2)N2CCOCC2)N2CCOCC2)cc1 | inactive: -0.504%
28 | COc1ccccc1OP(C)(=O)Nc1cccc(Br)c1 (centres undefined) | inactive: -3.88%
29 | CS(=O)(=O)c1ccc(Cl)c(NC(=O)COC(=O)C(O)(c2ccccc2)c2ccccc2)c1 | inactive: 5.46%
